How the values were obtained:
TrkA = TrkA (Homo sapiens (Human), UniProt P04629); assay: In vitro kinase activity assay (LANCE TR-FRET); type: biochemical; settings: read-out: TrkA (nM) IC50;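 note: kinase reaction with poly-GT peptide substrate and ATP, phosphorylated product quantified by time-resolved FRET, eleven-point dose curves from 10^−11 to 10^−5 M in triplicate, DMSO as negative control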
ALK = ALK (Homo sapiens (Human), UniProt Q9UM73); assay: In vitro kinase activity assay (LANCE TR-FRET); type: biochemical; settings: read-out: ALK IC50;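 note: kinase reactions with ATP and a poly-GT peptide substrate, phosphorylated product read by time-resolved FRET, 11-point curve from 10^−11 to 10^−5 M, DMSO as negative control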

Protein sequences, listed by entry. Tags and fused reporters are not part of them. Residues count along the entry.
UniProt P04629, 33-796: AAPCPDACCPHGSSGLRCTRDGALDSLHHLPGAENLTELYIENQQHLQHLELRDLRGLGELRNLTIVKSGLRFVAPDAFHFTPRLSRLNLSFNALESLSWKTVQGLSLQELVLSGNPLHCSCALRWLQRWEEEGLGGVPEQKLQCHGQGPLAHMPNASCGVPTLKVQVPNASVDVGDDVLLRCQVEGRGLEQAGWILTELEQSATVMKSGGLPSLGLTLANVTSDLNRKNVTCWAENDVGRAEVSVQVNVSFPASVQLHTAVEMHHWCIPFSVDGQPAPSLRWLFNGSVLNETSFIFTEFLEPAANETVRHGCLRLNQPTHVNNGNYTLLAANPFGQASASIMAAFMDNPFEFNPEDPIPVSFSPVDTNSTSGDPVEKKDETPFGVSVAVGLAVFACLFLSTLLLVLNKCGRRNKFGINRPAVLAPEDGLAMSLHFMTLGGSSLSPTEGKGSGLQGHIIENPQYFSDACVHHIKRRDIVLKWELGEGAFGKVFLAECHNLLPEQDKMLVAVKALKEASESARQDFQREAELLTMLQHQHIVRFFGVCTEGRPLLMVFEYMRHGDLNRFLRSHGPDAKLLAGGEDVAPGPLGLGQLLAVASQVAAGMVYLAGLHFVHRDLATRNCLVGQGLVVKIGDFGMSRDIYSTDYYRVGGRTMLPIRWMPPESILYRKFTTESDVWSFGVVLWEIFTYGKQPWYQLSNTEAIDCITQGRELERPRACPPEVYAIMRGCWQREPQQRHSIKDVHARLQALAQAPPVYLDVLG
UniProt Q9UM73, 19-1620: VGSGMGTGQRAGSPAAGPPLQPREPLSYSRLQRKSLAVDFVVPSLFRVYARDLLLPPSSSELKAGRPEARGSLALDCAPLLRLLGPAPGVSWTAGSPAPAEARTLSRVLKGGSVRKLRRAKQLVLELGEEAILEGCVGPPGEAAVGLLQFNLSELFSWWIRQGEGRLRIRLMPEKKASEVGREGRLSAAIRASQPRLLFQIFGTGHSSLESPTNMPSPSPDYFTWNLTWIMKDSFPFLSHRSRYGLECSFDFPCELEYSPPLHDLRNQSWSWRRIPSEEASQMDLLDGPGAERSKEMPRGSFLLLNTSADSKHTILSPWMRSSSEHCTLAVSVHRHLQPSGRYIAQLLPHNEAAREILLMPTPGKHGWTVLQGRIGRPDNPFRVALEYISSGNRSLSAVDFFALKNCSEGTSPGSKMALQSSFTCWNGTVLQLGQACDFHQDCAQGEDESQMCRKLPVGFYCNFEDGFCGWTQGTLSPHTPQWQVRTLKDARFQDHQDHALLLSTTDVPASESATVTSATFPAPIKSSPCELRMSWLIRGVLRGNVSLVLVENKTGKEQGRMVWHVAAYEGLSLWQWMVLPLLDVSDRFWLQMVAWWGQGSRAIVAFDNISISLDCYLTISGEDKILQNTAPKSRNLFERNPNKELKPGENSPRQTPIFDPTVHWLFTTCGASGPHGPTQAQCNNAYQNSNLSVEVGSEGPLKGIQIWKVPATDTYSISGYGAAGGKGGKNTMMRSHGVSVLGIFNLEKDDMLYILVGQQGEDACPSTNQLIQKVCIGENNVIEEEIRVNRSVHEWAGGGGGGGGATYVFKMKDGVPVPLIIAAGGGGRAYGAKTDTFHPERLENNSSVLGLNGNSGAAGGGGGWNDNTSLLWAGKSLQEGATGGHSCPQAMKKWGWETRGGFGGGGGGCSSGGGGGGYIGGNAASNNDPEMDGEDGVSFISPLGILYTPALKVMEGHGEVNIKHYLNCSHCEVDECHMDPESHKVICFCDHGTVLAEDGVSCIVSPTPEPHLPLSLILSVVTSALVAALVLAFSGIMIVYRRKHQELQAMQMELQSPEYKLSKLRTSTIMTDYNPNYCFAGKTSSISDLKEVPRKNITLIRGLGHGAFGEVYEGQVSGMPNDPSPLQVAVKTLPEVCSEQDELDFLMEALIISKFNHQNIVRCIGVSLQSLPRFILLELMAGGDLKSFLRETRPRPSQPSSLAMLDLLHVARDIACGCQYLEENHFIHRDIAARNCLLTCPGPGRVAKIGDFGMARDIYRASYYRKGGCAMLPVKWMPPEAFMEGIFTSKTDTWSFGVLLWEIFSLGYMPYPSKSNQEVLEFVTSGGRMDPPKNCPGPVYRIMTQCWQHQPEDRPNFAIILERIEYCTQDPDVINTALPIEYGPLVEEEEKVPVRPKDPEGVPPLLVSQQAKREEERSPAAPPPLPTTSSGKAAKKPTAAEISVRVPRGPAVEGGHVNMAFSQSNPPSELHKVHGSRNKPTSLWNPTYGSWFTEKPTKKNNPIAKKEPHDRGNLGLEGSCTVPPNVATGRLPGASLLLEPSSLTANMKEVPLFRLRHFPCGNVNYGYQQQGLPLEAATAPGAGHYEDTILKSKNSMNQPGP

Row | Compound | IC50 (TrkA) | IC50 (ALK)
1 | C[C@@H](Cc1c(F)c(F)cc(F)c1F)Nc1cc[nH]c(=O)c1-c1nc2cc3c(cc2[nH]1)C(=O)N(CCN(C)C)C3 [Compound 1, (S)-6-(2-(Dimethylamino)ethyl)-2-(2-oxo-4-((1-(2,3,5,6-tetrafluorophenyl)propan-2-yl)amino)-1,2-dihydropyridin-3-yl)-6,7-dihydroimidazo[4,5-f]isoindol-5(3H)-one] | 1.14 nM | 
2 | (S)-6-(6-Fluoropyridin-3-yl)-2-(2-oxo-4-((1-(2,3,5,6-tetrafluorophenyl)propan-2-yl)amino)-1,2-dihydropyridin-3-yl)imidazo[4,5-f]isoindole-5,7(1H,6H)-dione [Compound 15] |  | > 10000 nM

Reference: US8822500B2 (dated 2014)
